Laboratory results as given in US20060211045A1, “Fluorescently tagged ligands” (priority 2003, published 2006).

Chains of the proteins cited; added tags and fusions are not shown.
UniProt P30542, whole entry: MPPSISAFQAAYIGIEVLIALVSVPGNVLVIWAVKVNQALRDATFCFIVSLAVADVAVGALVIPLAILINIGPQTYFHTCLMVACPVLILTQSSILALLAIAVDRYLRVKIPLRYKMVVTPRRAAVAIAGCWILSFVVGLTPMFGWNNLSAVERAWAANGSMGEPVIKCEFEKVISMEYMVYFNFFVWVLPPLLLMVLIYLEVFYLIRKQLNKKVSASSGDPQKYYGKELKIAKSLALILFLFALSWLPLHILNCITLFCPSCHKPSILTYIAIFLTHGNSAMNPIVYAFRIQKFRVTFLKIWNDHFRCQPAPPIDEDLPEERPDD

Key:
human A1-AR = human A1-AR (Homo sapiens, UniProt P30542); assay: c-fos-pGL3 luciferase reporter assay in CHO-A1fos cells; format: cell-based; settings: agonist 5 h, mean±s.e.mean
human A1-receptor = human A1-receptor (Homo sapiens, UniProt P30542); assay: Live cell confocal imaging of ligand binding to CHO-A1 cells; format: cell-based; settings: 100 nM BY630-ABEA

- pEC50, stimulation of luciferase expression (human A1-AR): 6.76±0.18
- Time after which binding of ligand to the membrane was detectable (confocal imaging) (human A1-receptor; CHO-A1 cells, n=3): 5 min
- Membrane binding after preincubation with DPCPX (confocal imaging) (human A1-receptor; DPCPX 1 μM, 30 min): substantially reduced
Compound: CCNC(=O)[C@H]1O[C@@H](n2cnc3c(NCCCCNC(=O)CCCCCNC(=O)COc4ccc(C=CC5=[N+]6C(=Cc7ccc(-c8cccs8)n7[B-]6(F)F)C=C5)cc4)ncnc32)[C@H](O)[C@@H]1O
